Columns and labels:
[1] = tested on: methicillin-Sensitive Staphylococcus aureus (MSSA); assay: Test C: planktonic antibacterial broth microdilution assay (MIC) vs MSSA; format: cell-based; settings: read-out: MIC vs MSSA
Description: (§1) Test C. Planktonic (Free-Living) Antibacterial Assay.
(§2) Planktonic antibacterial activity can be determined using a broth microdilution assay in which log-phase bacteria are grown at 37° C. in appropriate medium containing two-fold serial dilutions of a compound to yield a final concentration ranging from 256 to 0.1 μg/ml. For determination of minimal inhibitory concentration (MIC) values, bacterial growth is monitored after 24 to 48 hours by measuring optical density at 600 nm.

[2] = tested on: MRSA; assay: Test C: planktonic antibacterial broth microdilution assay (MIC) vs MRSA; format: cell-based; settings: Staphylococcus aureus, read-out: MIC vs MRSA
Description: as §1, §2

Row | MIC [1] [µg/mL] | MIC [2] [µg/mL] | Compound
1 | ≤ 8 |  | COc1cc2cc(-c3cccc(-c4ccccc4)c3)nc(CN=C(N)N)c2cc1OC [Example 12]
2 | ≤ 8 | ≤ 8 | COc1cc2cc(-c3cccc(-c4ccc(C(C)(C)C)cc4)c3)nc(CN=C(N)N)c2cc1OC [Example 10]
3 | ≤ 8 | ≤ 8 | COc1cc2cc(-c3cccc(-c4cccc(C(C)(C)C)c4)c3)nc(CN=C(N)N)c2cc1OC [Example 11]

From patent publication US8933096B2, “Antimicrobial agents” (Rugers, The State University of New Jersey, priority 2010, dated 2015)
